The IC50 is the concentration that gives 50% inhibition.

Protein sequences, listed by entry. Tags and fused reporters are not part of them. Lines headed by an entry give the natural chain unless they say otherwise; changes in a name come on top.
UniProt Q14680: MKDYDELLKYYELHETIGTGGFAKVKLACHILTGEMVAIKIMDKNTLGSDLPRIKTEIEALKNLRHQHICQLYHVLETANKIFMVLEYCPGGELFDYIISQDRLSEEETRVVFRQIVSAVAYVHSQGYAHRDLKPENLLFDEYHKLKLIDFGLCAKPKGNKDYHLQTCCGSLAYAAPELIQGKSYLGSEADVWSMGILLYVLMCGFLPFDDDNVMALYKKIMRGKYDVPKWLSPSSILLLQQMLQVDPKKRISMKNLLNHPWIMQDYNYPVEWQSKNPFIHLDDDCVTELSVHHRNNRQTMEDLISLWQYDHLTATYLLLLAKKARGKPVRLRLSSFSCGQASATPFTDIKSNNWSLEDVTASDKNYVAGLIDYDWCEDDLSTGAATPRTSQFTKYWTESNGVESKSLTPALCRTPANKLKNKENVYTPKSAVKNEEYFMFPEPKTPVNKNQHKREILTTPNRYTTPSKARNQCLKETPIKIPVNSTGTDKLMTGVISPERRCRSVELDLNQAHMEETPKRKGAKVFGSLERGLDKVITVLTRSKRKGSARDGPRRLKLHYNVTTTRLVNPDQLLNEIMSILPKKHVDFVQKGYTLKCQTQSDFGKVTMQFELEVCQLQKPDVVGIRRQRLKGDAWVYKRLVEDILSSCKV

Our source for the IC50 values is patent US9120749B2, “Quinoline derivatives and MELK inhibitors containing the same” (ONCOTHERAPY SCIENCE, INC., priority 2010, dated 2015).

Structures can show the parent of a compound that is named as a salt. Where two headings read alike, the source gives them in different places.

The target of the test is MELK (Homo sapiens, UniProt Q14680). Put plainly: Kinase assay: MELK activity, phosphorylation of FITC-labeled histone H3 peptide measured by IMAP fluorescence polarization. Type of test: biochemical. The procedure:
MELK activity was determined in the presence or absence of compounds using fluorescein isothiocyanate-labeled (FITC-labeled) histone H3 peptide as a substrate. […] Test compounds were dissolved in DMSO at 12.5 mM and then serially diluted as the DMSO concentration in the assays to be 1%. […] The reaction was stopped by the addition of three fold assay volume of progressive binding solution. Following 0.5 hour incubation at room temperature, fluorescence polarization was measured by Wallac EnVision 2103 multilabel reader (PerkinElmer).
(In general: Polarisation of emitted light reports the rotation of a fluorescent probe.)

Consider `CN1CCN(C[C@H]2CC[C@H](Nc3c(C(=O)C4CC4)cnc4ccc(-c5cc(F)c(O)c(Cl)c5)cc34)CC2)CC1` [Example 636], for which half-maximal inhibition (IC50) required 0.0098 µM.
As for `COc1cc(-c2ccc3ncc(C(C)=O)c(Nc4ccc(CN5CCCC5)cc4)c3c2)cc(Cl)c1O` [Example 419, 1-(6-(3-chloro-4-hydroxy-5-methoxyphenyl)-4-(4-(pyrrolidin-1-ylmethyl)phenylamino)quinolin-3-yl)ethanone], where the note is “50 micro-M ATP, FITC-labeled histone H3 peptide substrate, IMAP fluorescence polarization”, the IC50 came to 0.0059 µM.
In turn, `COc1cc(-c2ccc3ncc([S+](C)[O-])c(N[C@H]4CC[C@H](N)CC4)c3c2)cc(Cl)c1O` (some centres unmarked) [Example 500] gave an IC50 of 0.0049 µM.
The molecule `CC(=O)c1cnc2ccc(-c3cc(Cl)c(O)c(Cl)c3)cc2c1N[C@H]1CC[C@H](CCN(C)C)CC1` [Example 739, 1-(6-(3,5-dichloro-4-hydroxyphenyl)-4-((trans-4-(2-(dimethylamino)ethyl)cyclohexyl)amino)quinolin-3-yl)ethanone] showed an IC50 of 0.0032 µM.
In the case of `COc1cc(-c2ccc3ncc(C(C)=O)c(Nc4ccc(CN5CCN(C)CC5)cc4)c3c2)cc(Cl)c1O` [Example 653, 1-(6-(3-chloro-4-hydroxy-5-methoxyphenyl)-4-(4-((4-methylpiperazin-1-yl)methyl)phenylamino)quinolin-3-yl)ethanone], the IC50 was 0.0098 µM.
Molecule `CN1CCN(Cc2ccc(-c3c(C(=O)C4CC4)cnc4ccc(-c5cc(Cl)c(O)c(Cl)c5)cc34)cc2)CC1` [Example 482, cyclopropyl(6-(3,5-dichloro-4-hydroxyphenyl)-4-(4-((4-methylpiperazin-1-yl)methyl)phenyl)quinolin-3-yl)methanone] yielded an IC50 of 0.0061 µM.
`CN(C)CCNc1ccc(Nc2c(C(=O)C3CC3)cnc3ccc(-c4cc(F)c(O)c(Cl)c4)cc23)cn1` [Example 776, (6-(3-chloro-5-fluoro-4-hydroxyphenyl)-4-(6-(2-(dimethylamino)ethylamino)pyridin-3-ylamino)quinolin-3-yl)(cyclopropyl)methanone] came in with an IC50 of 0.0027 µM.
The molecule `CN(C)CCNc1ccc(Nc2c(C(=O)C3CC3)cnc3ccc(-c4cc(F)c(O)c(Cl)c4)cc23)cn1` [Example 777, (6-(3-chloro-5-fluoro-4-hydroxyphenyl)-4-(6-(2-(dimethylamino)ethylamino)pyridin-3-ylamino)quinolin-3-yl)(cyclopropyl)methanone trihydrochloride] had an IC50 (trihydrochloride) of 0.0034 µM.
